Earlier results in article PMC11854596.

Protein sequences, listed by entry. Tags and fused reporters are not part of them. Lines headed by an entry give the natural chain unless they say otherwise; changes in a name come on top.
UniProt P61077: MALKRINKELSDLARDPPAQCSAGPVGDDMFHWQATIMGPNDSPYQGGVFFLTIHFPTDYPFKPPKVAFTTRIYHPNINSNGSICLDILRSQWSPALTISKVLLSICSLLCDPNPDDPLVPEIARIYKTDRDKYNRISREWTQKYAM

Target: UbcH5c (Homo sapiens) (UniProt P61077)

Substance: ubiquitin (from UniProt P0CG48)
- Kd: 300 µM
